The values that follow come from patent US9067937B2 (priority 2012, dated 2015).

By UniProt entry, the sequences of proteins in these tests, tags left out. Where a name states a change or a piece, a line headed by the entry shows the natural chain unless it says otherwise.
UniProt Q14680: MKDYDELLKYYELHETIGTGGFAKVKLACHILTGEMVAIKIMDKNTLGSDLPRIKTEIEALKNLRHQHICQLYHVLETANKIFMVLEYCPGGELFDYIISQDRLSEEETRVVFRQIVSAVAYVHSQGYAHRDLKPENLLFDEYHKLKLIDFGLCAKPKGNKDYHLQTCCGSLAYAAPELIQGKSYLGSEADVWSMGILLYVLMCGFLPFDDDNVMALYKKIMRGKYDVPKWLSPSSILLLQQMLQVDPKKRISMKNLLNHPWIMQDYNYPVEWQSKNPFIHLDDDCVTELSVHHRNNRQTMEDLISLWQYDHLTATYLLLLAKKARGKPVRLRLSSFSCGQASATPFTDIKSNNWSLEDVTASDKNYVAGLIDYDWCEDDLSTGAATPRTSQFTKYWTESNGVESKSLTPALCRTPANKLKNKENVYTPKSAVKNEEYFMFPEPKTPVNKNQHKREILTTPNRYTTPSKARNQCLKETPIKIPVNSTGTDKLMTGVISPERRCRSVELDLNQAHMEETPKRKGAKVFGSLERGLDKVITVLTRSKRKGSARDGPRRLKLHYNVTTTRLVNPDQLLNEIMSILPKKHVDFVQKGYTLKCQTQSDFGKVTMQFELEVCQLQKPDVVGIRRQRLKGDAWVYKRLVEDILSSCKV

One data set addresses MELK (Homo sapiens, UniProt Q14680). As to the kind of experiment: Kinase assay (IMAP fluorescence polarization, FITC-labeled histone H3 peptide). In kind it is biochemical. As to conditions: 50 micro-M ATP. The procedure:
MELK activity was determined in the presence or absence of compounds using fluorescein isothiocyanate-labeled (FITC-labeled) histone H3 peptide as a substrate. […] The serially diluted compounds, 0.8 ng/micro-L […] (Carna Biosciences) and 100 nM FITC-labeled histone H3 peptide were reacted in a reaction buffer (20 mM HEPES, 0.01% Tween-20, 0.3 mM MgCl2, 2 mM dithiothreitol, 50 micro-M ATP, pH 7.4) at room temperature for 1 hour. The reaction was stopped by the addition of three fold assay volume of progressive binding solution. […] IC50 values were calculated by nonlinear four parameter fit using SigmaPlot, version 10.0 (Systat Software, Inc.).

Data set [1] is described as follows: Body weight of xenograft mice as indicator of tolerability.

Counter-ions that a name gives are not always drawn.

What is called IC50 is the point on the concentration scale where inhibition reaches its midpoint. Low values mean inhibition by little substance, high ones a need for much substance. As for `CC(=O)c1cnc2ccc(-c3cc(Cl)c(O)c(Cl)c3)nc2c1N[C@H]1CC[C@H](CN(C)C)CC1` [Example 6, 1-{6-(3,5-Dichloro-4-hydroxyphenyl)-4-({trans-4-[(dimethylamino)methyl]cyclohexyl}amino)-1,5-naphthyridin-3-yl}ethanone dihydrochloride], half-maximal inhibition against MELK (IC50) required 0.0011 µM. In addition, the “Mean relative body weight after 14 days of administration (vs day 0)” value in data set [1] (A549 mice, 1 mg/kg intravenously once a day) stood at 1.06; in data set [1] (A549 mice, 5 mg/kg intravenously once a day), 1.03; in data set [1] (A549 mice, 5 mg/kg orally once a day) it was 0.99; in data set [1] (A549 mice, 10 mg/kg intravenously once a day), 1.00; in data set [1] (A549 mice, 10 mg/kg orally once a day) it was 0.98; in data set [1] (DU145 mice, 10 mg/kg orally once a day), 0.96. The “Mean relative body weight after 14 days of administration (vs day 0)” value in data set [1] (MDA-MB-231 mice, 10 mg/kg orally once a day) is listed as 0.89; in data set [1] (MDA-MB-231 mice, 20 mg/kg intravenously once every two days), 0.93; in data set [1] (MIAPaCa-2 mice, 10 mg/kg orally once a day) it was 0.97.

`CC(=O)c1cnc2ccc(-c3cc(Cl)c(O)c(Cl)c3)nc2c1N[C@H]1CC[C@@H](CN(C)C)CC1` [Example 94, 1-{6-(3,5-Dichloro-4-hydroxyphenyl)-4-({cis-4-[(dimethylamino)methyl]-cyclohexyl}amino)-1,5-naphthyridin-3-yl}ethanone dihydrochloride] displayed an IC50 at MELK of 0.0006 µM.
